From PubChem
UUG fidelity: modulators of yeast start codon fidelity, primary screen, whole organism, S. cerevisiae, single point, plate reader | activity score, % at 18.7 µM | 350,000 tested, 0.13% active | S. cerevisiae UUG-firefly luciferase reporter, luminescence/redox ratio;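 active means replicate mean at a twofold rise or more, about +100% in these data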;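 further: firefly luciferase made from a UUG start codon reports start codon fidelity; reporter light over untreated wells divided by growth signal over untreated wells; some hits fall short of that in this replicate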
esBAF inh: blocks esBAF chromatin remodeling in mouse ES cells | Bmi1-luciferase knock-in reporter, 24 h; 100% = twice the neutral-well signal | 350,000 tested, 2% active | reporter increase, % at 12.5 µM; in the data active = activation above about 40%;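 note: 0% = median of the plate's neutral control wells and 100% = double that signal; a rise in the Bmi1 reporter signal indicates esBAF inhibition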
PGC1a acetyl inh: modulators of PGC1a acetylation | inhibition, % at 15.6 µM | AID 651687 | 350,000 tested, 0.17% active | U2OS PGC1a acetylation, AlphaScreen anti-acetyl-lysine; with virally co-expressed GCN5 acetyltransferase;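 active = every replicate shows inhibition of at least 40%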;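 note: 0% = neutral control wells and 100% = positive control wells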
E-sel inducer: E-selectin induction on HUVECs. AID 686992. 260,000 tested, 0.37% active. P16581. HUVEC E-selectin immunofluorescence imaging; normalized: neutral wells 0, TNF-alpha wells 100. activation, % at 7.58 µM;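 active = mean E-selectin-positive cell signal at least 10% of the positive control, reached in at least 60% of replicates, without over 20% cell loss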
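Read-out basis: % PE-positive cells; Test system: HUVEC primary endothelial cells; Technique: immunofluorescence imaging; Dosing: single-point compound dose.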
PglD DTNB: blocks C. jejuni PglD acetyltransferase activity. inhibition, % at 12.5 µM. AID 602405. purified PglD enzyme, DTNB colorimetric CoA detection. 360,000 tested, 0.098% active; in the data active = inhibition above about 16%, passing the limit was not always enough
C2C12 statin: suppression of simvastatin myotoxicity; C2C12 myotubes + simvastatin, ATP luminescence, 48 h; scaled: DMSO 0, geranylgeraniol control 100; rescue of ATP level, % at 7.49 µM; 330,000 tested, 0.78% active; AID 602340;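 active = mean ATP rescue above about 67%, or every replicate alone reaching that limit, limit read from the data, passing the limit was not always enough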;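 note: myotubes were challenged with 10 µM simvastatin during compound exposure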
* marks the source's active call; other numbers are inactive results; x = not tested or not shown. A selection: hits, their analogues and other compounds. The true share with any hit is near 2.8%.

SMILES	UUG fidelity	esBAF inh	PGC1a acetyl inh	E-sel inducer	PglD DTNB	C2C12 statin
O=C(NC(=S)Nc1ccc(N2CCOCC2)cc1)c1ccccc1	-27.1	52.7*	-22.0	2.2	-4.3	-3.7
C[C@@H]1CN([C@@H](C)CO)C(=O)c2cc(NC(=O)CCCN(C)C)ccc2O[C@@H](C)CCCCO[C@@H]1CN(C)C(=O)NC1CCCCC1	18.9	-1.1	-2.5	-0.3	1.3	x
CS(=O)(=O)N1CCN(C(=O)c2ccccc2F)CC1	-10.7	-2.5	8.5	x	-5.2	94.5*
CSc1ccccc1NC(=O)c1ccccc1N(Cc1ccccc1)S(C)(=O)=O	15.6	-8.8	-28.6	x	0.4	102.3*
CN(c1ccccc1C(=O)N1CCCC1)S(C)(=O)=O	28.4	-10.0	-8.4	x	0.7	99.7*
CCCNC(=O)c1ccccc1NC(=O)c1ccccc1N(C)S(C)(=O)=O	-6.3	2.3	0.5	x	-5.8	103.1*
CSc1ccccc1NC(=O)c1ccccc1N(C)S(C)(=O)=O	-8.9	-7.4	-5.4	x	-3.7	-1.1
OC[C@@H]1[C@@H](c2ccc(-c3cccnc3)cc2)[C@H]2CN(CC3CCOCC3)CCCCN12	-24.6	x	3.8	x	-0.6	x
Cc1ccc(N=c2c([N+](=O)[O-])nn(-c3ccccc3)n2O)c(C)c1	-12.8	67.0*	0.3	x	0.5	19.5
O=C(OCc1ccccc1)N1CCC2CC1c1cc(-c3ccc(F)cc3)ccc12 (stereo not drawn)	-31.9	9.5	62.8*	-0.1	2.8	4.5
CCC1([N+](=O)[O-])COC(C=Cc2ccccc2)OC1 (stereo not drawn)	-15.5	54.0*	7.4	-0.1	-4.1	-1.3
O=C(COC(=O)c1n[nH]c2ccccc12)Nc1ccccc1F	-15.1	122.8*	-4.3	0.1	2.3	6.3
O=C(COC(=O)c1n[nH]c(=O)c2ccccc12)Nc1ccccc1F	-1.2	1.6	x	-0.4	-1.0	3.8
O=C(COC(=O)C1CC1)c1c[nH]c2ccccc12	-16.1	47.8*	x	x	1.3	-19.7
CC1CCCN(C(=O)COC(=O)c2n[nH]c3ccccc23)C1 (stereo not drawn)	-19.4	69.9*	5.3	x	5.3	-4.8
CC1CCN(C(=O)COC(=O)c2c[nH]c3ccccc23)CC1	-9.7	57.0*	-13.2	1.3	-2.3	5.2
COc1cc(C#Cc2ccc3cc(CCO)oc(=O)c3c2)cc(OC)c1	-16.2	58.2*	-4.4	0.8	6.3	-15.1
CN(C)c1ccc(C#Cc2ccc3cc(CCO)oc(=O)c3c2)cc1	-12.4	32.2	-10.1	x	-7.1	1.8
O=c1oc(CCO)cc2ccc(C#Cc3ccsc3)cc12	-12.4	79.4*	-3.4	0.2	4.2	-12.0
O=c1oc(CCCO)cc2ccc(C#Cc3cccnc3)cc12	-14.5	30.4	x	0.2	6.5	-16.0
C[C@@H]1CN([C@@H](C)CO)C(=O)c2ccccc2-c2ccccc2CO[C@@H]1CN(C)S(=O)(=O)c1ccc([N+](=O)[O-])cc1	x	x	-17.0	0.7	x	x
COc1ccccc1NC(=O)N1C[C@@H]2[C@H](c3ccccc31)[C@H](CO)N2C(=O)C1CC1	45.9	-2.4	-0.4	x	-9.1	-12.5
O=C(NC1CCCC1)c1cccc2c1C(=O)c1ccc(N3CCCCC3)cc1S2(=O)=O	-16.5	50.2*	x	-0.2	-2.7	0.2
CC1CCN(c2ccc3c(c2)S(=O)(=O)c2cccc(C(=O)NCc4ccc(F)cc4)c2C3=O)CC1	-20.7	70.0*	x	1.6	2.1	-9.1
CN1c2ccc(Br)cc2[C@@H]2[C@@H](CCN2C(=O)Nc2ccc(F)cc2)[C@H]1CO	2.8	2.7	10.2	-0.6	-1.2	-8.0
Continued.
SMILES	UUG fidelity	esBAF inh	PGC1a acetyl inh	E-sel inducer	PglD DTNB	C2C12 statin
CCSc1ncc(/C=N/Nc2ccccc2)n1C	-29.1	26.0	3.6	x	-9.1	91.8*
CCSc1ncc(/C=N/Nc2ccc(Cl)cc2)n1C	-13.0	24.9	-2.7	x	-2.6	2.1
Cc1ccc(N/C=C/C(=O)c2ccc(C)cc2)cc1	-2.4	1.7	6.8	x	-8.6	-22.9
Cc1ccc(O)c(N/C=C/C(=O)c2ccc(F)cc2)c1	-12.7	63.3*	x	x	-7.2	44.2
COc1ccc(NC(=O)Nc2ccc3c(c2)C(=O)N([C@@H](C)CO)C[C@@H](C)[C@H](CN(C)C(=O)Nc2cccc4ccccc24)O3)cc1	-5.5	8.5	-8.9	x	1.2	-4.0
CCNc1oc(COc2ccccc2F)nc1C#N	-8.0	52.1*	3.4	x	2.0	-2.2
COc1ccc(CCNc2oc(COc3ccccc3F)nc2C#N)cc1OC	-17.9	-7.6	-5.9	x	-4.5	13.1
Cc1cccc(CCNc2nc3ccc(C)cc3n3cnnc23)c1	-12.1	46.0*	4.3	0.4	2.4	-0.6
COc1cccc2c1C(=O)c1ccc3ccccc3c1C2=O	7.0	46.7*	5.0	x	-7.0	9.1
O=C(OC(C(=O)NCc1ccc2c(c1)OCO2)c1ccccc1F)c1ccco1 (stereo not drawn)	10.3	5.5	9.8	x	-3.1	83.8*
O=C(OC(C(=O)NCc1ccccc1)c1ccccc1F)c1ccco1 (stereo not drawn)	-9.2	-0.3	x	x	-6.3	1.1
O=C(CSc1ccc(F)cc1)Nc1ccc(C2SCCS2)cc1	-23.2	45.4*	8.8	x	6.5	-5.6
CN1CCN(/C=N/c2sc3c(c2C#N)CCCCC3)CC1	-7.7	80.5*	3.8	x	-9.5	-10.5
Cc1ccc(/C=N/c2sc3c(c2C#N)CCC3)s1	-24.7	28.9	-0.6	x	0.0	119.7*
CCN(/C=N/c1sc2c(c1C#N)CCCCC2)CC	-2.1	x	3.6	x	-5.8	x
C[C@@H]1CN([C@@H](C)CO)C(=O)Cc2cc(NC(=O)Cc3ccccc3)ccc2O[C@H]1CN(C)C(=O)Nc1ccc(F)cc1	-5.8	-2.8	8.3	-1.7	3.0	3.7
CN1c2ccc(Br)cc2[C@@H]2[C@@H](CCN2C(=O)CN2CCOCC2)[C@H]1CO	2.0	3.6	-4.1	0.1	3.1	-1.6
C[C@H](CO)N1C[C@H](C)[C@@H](CN(C)Cc2ccc3c(c2)OCO3)OCCCC[C@H](C)Oc2ccc(NC(=O)Cc3ccccc3)cc2C1=O	29.6	-9.8	-2.6	-0.2	2.5	x
C[C@@H]1CN([C@H](C)CO)C(=O)Cc2cc(NC(=O)CCN3CCOCC3)ccc2O[C@H]1CN(C)C(=O)Nc1ccc(F)cc1	-11.9	9.1	15.6	0.6	-1.7	-3.0
CN1CCN(/N=C/c2ccc(N(c3ccccc3)c3ccccc3)cc2)CC1	1.1	-0.6	56.4*	2.1	4.8	-7.2
Cc1noc(C)c1S(=O)(=O)N(C)C[C@@H]1OCCCC[C@@H](C)Oc2ccc(NC(=O)c3ccccc3)cc2C(=O)N([C@H](C)CO)C[C@@H]1C	0.4	3.5	-11.5	2.3	2.5	x
O=C(Cn1ccsc1=NC(=O)C(F)(F)F)c1ccccc1	-12.6	49.4*	14.8	x	-3.9	-22.4
Cc1ccc(Nc2nc3nonc3nc2N(C)C)cc1	-5.0	-1.4	-3.1	x	2.5	88.1*

For reference, part of the list above:
SMILES	UUG fidelity	esBAF inh	PGC1a acetyl inh	E-sel inducer	PglD DTNB	C2C12 statin
C[C@H](CO)N1C[C@H](C)[C@@H](CN(C)Cc2ccc3c(c2)OCO3)OCCCC[C@H](C)Oc2ccc(NC(=O)Cc3ccccc3)cc2C1=O	29.6	-9.8	-2.6	-0.2	2.5	x
C[C@@H]1CN([C@H](C)CO)C(=O)Cc2cc(NC(=O)CCN3CCOCC3)ccc2O[C@H]1CN(C)C(=O)Nc1ccc(F)cc1	-11.9	9.1	15.6	0.6	-1.7	-3.0
CN1CCN(/N=C/c2ccc(N(c3ccccc3)c3ccccc3)cc2)CC1	1.1	-0.6	56.4*	2.1	4.8	-7.2
Cc1noc(C)c1S(=O)(=O)N(C)C[C@@H]1OCCCC[C@@H](C)Oc2ccc(NC(=O)c3ccccc3)cc2C(=O)N([C@H](C)CO)C[C@@H]1C	0.4	3.5	-11.5	2.3	2.5	x
O=C(Cn1ccsc1=NC(=O)C(F)(F)F)c1ccccc1	-12.6	49.4*	14.8	x	-3.9	-22.4
Cc1ccc(Nc2nc3nonc3nc2N(C)C)cc1	-5.0	-1.4	-3.1	x	2.5	88.1*
